Laboratory results taken from ChEMBL document CHEMBL1136002, “Piperidine analogues of 1-[2-[bis(4-fluorophenyl)methoxy]ethyl]-4-(3-phenylpropyl)piperazine (GBR 12909): high affinity ligands for the dopamine transporter” (J Med Chem, 2002).

Sequences of proteins named here, by UniProt entry; tags and fusion partners are left off.
UniProt P31645, whole entry, looked up: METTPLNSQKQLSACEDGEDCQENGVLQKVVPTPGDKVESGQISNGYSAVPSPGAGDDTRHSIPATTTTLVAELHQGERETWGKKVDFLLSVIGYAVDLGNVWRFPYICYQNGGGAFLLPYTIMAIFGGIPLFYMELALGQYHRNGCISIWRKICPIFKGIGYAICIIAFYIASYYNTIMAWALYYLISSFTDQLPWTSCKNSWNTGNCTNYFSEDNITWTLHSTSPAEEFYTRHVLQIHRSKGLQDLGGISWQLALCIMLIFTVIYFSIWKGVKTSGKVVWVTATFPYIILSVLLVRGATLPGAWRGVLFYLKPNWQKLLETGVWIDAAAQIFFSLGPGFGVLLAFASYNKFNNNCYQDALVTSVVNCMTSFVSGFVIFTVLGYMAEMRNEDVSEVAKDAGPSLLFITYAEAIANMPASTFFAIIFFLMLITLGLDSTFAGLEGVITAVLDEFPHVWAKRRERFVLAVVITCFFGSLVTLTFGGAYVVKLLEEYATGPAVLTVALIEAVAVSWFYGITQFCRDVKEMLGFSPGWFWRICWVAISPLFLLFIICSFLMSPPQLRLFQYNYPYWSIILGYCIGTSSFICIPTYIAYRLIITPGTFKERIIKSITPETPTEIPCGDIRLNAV

Target: Sodium-dependent serotonin transporter (Homo sapiens, UniProt P31645)
Assay: Ratio of IC50 value against Serotonin transporter to that of Dopamine transporter

Compound: Fc1ccc(C(OCCC2CCN(Cc3ccc4ccccc4c3)CC2)c2ccc(F)cc2)cc1
- Ratio: 38
